Assay results reported in US20260242395A1, “AMINOHETEROARYL KINASE INHIBITORS” (ALLORION THERAPEUTICS INC, priority 2022, published 2026).
pIC50: −log10 of the molar value.

By UniProt entry, the sequences of proteins in these tests, tags left out.
UniProt P11802, whole entry: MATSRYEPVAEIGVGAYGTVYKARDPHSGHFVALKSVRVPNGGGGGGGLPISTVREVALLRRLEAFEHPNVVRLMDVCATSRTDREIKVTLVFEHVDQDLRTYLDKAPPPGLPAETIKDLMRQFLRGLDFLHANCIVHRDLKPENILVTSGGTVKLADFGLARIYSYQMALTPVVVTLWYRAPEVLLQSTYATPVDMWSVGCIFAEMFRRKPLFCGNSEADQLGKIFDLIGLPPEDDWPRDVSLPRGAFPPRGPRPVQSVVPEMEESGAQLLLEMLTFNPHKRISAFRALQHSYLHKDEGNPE
UniProt Q00534, whole entry: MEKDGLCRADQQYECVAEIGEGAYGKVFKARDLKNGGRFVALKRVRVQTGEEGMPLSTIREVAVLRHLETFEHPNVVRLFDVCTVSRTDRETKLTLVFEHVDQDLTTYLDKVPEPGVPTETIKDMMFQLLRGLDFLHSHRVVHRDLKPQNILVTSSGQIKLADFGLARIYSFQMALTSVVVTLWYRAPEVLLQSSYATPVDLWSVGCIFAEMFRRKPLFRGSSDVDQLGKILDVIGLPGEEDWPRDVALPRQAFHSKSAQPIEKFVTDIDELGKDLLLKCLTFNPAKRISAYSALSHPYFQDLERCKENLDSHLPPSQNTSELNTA
UniProt P50613, whole entry: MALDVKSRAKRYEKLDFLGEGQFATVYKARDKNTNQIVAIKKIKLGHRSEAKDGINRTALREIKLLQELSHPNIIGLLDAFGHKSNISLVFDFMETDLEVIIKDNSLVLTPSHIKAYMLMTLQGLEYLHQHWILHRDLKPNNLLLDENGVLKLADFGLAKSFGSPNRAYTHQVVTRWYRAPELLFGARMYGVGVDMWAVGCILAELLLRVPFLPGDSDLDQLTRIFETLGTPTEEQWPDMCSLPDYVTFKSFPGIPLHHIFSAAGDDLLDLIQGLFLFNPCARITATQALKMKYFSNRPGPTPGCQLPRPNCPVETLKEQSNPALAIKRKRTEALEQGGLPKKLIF
UniProt P06493, whole entry: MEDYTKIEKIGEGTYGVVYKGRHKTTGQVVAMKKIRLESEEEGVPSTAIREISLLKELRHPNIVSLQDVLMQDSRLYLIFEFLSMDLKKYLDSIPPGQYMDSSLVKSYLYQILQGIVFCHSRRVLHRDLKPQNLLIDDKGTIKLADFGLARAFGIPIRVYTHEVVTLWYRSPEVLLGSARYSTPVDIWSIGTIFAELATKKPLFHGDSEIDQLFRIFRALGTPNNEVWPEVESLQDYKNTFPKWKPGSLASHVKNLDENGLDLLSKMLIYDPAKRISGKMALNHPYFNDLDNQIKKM
UniProt P50750, whole entry: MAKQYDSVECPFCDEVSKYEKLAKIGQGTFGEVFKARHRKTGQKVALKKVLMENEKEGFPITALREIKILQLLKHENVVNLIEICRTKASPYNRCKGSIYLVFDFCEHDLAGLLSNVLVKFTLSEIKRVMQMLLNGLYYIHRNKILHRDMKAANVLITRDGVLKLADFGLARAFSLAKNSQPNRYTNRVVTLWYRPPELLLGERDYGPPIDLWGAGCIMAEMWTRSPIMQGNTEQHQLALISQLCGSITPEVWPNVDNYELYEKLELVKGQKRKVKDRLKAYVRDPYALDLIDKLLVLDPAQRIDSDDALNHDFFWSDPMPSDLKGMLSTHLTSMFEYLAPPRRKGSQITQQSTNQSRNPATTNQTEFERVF
UniProt P24385, whole entry partner: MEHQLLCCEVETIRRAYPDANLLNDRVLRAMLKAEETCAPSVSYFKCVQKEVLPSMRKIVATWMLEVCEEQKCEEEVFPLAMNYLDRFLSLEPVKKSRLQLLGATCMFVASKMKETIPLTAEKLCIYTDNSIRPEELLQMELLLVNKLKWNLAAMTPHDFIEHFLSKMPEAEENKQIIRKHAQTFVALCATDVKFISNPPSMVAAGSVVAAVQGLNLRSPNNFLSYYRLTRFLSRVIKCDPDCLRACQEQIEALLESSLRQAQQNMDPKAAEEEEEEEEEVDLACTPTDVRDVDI
UniProt P30281, whole entry partner: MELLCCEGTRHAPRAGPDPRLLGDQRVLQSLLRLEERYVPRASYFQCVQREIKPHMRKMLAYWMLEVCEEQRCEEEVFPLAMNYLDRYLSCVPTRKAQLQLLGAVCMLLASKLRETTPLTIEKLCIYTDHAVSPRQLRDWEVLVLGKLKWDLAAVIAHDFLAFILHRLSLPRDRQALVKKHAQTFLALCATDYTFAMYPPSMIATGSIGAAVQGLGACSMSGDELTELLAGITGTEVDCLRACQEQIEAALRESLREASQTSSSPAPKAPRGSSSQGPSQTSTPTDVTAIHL
UniProt O60563, whole entry partner: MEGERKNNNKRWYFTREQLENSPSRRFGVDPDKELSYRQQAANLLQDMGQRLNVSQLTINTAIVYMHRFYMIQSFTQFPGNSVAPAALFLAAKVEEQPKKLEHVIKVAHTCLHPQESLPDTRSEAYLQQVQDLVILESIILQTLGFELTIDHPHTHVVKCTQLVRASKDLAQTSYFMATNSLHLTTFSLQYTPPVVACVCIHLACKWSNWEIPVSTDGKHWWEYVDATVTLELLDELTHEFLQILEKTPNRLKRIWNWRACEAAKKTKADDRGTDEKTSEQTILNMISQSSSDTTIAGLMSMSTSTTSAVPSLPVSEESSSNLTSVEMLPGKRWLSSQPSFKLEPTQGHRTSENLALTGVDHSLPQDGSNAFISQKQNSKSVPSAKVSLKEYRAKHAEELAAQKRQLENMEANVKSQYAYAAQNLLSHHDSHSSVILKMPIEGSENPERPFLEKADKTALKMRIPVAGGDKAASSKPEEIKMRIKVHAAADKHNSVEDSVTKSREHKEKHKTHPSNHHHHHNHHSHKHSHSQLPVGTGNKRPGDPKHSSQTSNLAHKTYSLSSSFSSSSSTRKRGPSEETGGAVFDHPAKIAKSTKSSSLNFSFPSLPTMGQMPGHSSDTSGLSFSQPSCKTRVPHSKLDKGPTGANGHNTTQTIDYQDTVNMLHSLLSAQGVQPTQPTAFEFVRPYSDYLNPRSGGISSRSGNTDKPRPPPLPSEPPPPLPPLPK
UniProt P51948, whole entry partner: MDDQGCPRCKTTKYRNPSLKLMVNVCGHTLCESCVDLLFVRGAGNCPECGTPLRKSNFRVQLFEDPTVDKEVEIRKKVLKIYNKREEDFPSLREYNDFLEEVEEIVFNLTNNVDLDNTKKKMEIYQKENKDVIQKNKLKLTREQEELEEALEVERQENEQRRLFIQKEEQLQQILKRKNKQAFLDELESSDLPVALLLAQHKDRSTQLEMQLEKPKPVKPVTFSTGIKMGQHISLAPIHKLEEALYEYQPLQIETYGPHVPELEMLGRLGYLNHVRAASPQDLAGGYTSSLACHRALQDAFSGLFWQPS
UniProt P14635, whole entry partner: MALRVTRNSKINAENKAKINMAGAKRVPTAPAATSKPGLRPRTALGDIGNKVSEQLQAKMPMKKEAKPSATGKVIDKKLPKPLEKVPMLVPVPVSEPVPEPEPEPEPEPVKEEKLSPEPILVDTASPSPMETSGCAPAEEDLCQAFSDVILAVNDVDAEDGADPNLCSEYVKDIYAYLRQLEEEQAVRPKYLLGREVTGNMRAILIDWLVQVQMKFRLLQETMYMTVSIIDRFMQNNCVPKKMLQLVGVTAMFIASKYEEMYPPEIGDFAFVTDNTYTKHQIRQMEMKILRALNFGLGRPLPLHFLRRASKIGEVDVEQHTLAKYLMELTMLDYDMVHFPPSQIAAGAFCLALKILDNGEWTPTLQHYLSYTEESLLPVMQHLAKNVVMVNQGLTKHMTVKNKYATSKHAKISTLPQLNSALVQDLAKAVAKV
UniProt P51946, whole entry partner: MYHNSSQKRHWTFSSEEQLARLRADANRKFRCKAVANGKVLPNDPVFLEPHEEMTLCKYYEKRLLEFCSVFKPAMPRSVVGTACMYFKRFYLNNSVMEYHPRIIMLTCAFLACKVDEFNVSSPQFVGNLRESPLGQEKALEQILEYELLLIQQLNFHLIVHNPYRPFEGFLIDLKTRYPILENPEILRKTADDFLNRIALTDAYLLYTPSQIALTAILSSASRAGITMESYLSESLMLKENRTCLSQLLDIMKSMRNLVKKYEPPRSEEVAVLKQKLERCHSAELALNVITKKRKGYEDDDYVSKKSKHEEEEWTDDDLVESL

How the values were obtained:
CDK4/CyclinD1 = CDK4/CyclinD1 (Homo sapiens, UniProt P11802); assay: CDK4/CyclinD1 kinase inhibitory activity (Caliper mobility shift); conditions: read-out: CDK4/Cyclin D1 IC50; enzyme 20 nM, ATP 672 uM, 28° C. 30 min
Protocol: CDK4/CyclinD1 kinase inhibitory activity (IC50): 5 μl of various dilutions of test compound in 1× kinase buffer (20 mM HEPES, pH 7.5, 10 mM MgCl2, 2 mM DTT and 0.01% Triton X-100) was mixed with 10 μL of either CDK4/Cyclin D1 (ProQinase, 0142-0143-1 #, final concentration 20 nM in 1× Kinase buffer) or in 384 plates and incubated at room temperature for 10 min. To initiate each reaction, 10 μL of peptide solution containing fluorescently-labeled-peptide 8(5-FAM-IPTSPITTTYFFFKKK-COOH, GL, 112396 #, final concentration 3000 nM) and ATP (final concentration 672 uM for CDK4/CyclinD1) in 1×Kinase buffer was added to each of the wells containing test compound and CDK4/CyclinD1 mixture. The reaction is then allowed to proceed at 28° C. for 30 min and terminated by the addition of 25 μL stop buffer (100 mM HEPES pH 7.5, 50 mM EDTA, 0.2% Coating Reagent #3 (Perkin Elmer, 760050 #) and 0.015% Brij-35).
(§1) Following the kinase reaction, Caliper EZ reader II (Downstream voltages: −500V, Upstream voltages: −2250V, Base pressure −0.5 PSI, Screen pressure −1.2 PSI) was used to separate the phosphorylated (product) and the unphosphorylated (substrate) fluorescently-labeled peptide 8 based on their different mobility. Both substrate and product were measured and the ratio of these values were used to generate % conversion by Caliper EZ reader II. These conversion values were then transformed into % inhibition of kinase activity using the formula: % Inhibition=[(MA−X)/(MA−MI)]×100% where MA=conversion value of DMSO only controls, MI=conversion value of no enzyme controls and X=conversion value at any given compound dose. IC50 values were then calculated by plotting dose-response curves and then using the XLfit application in Excel software.

CDK6/CyclinD3 = CDK6/CyclinD3 (Homo sapiens, UniProt Q00534); assay: CDK6/CyclinD3 kinase inhibitory activity (Caliper mobility shift); conditions: read-out: CDK6/Cyclin D3 IC50; enzyme 15 nM, ATP 800 μM, 28° C. 30 min
Protocol: CDK6/CyclinD3 kinase inhibitory activity (IC50): 5 μl of various dilutions of test compound in 1× kinase buffer (50 mM HEPES pH 7.5, 10 mM MgCl2, 2 mM DTT and 0.01% Brij-35) was mixed with 10 μL of CDK6/CyclinD3 (Carna, 04-107 #, final concentration 15 nM in 1× Kinase buffer) in 384 plates and incubated at room temperature for 10 min. To initiate each reaction, 10 μL of peptide solution containing fluorescently-labeled -peptide 8(5-FAM-IPTSPITTTYFFFKKK-COOH, GL, 112396 #, final concentration 3000 nM) and ATP (final concentration 800 μM for CDK6/CyclinD3 in 1× Kinase buffer was added to each of the wells containing test compound and CDK6/CyclinD3. The reaction is then allowed to proceed at 28° C. for 30 min and terminated by the addition of 25 μL stop buffer (100 mM HEPES pH 7.5, 50 mM EDTA, 0.2% Coating Reagent #3 (Perkin Elmer, 760050 #) and 0.015% Brij-35).
as §1

CDK7/CyclinH/MAT1 = CDK7/CyclinH/MAT1 (Homo sapiens, UniProt P50613); assay: CDK7/CyclinH/MAT1 kinase inhibitory activity (Caliper mobility shift); conditions: read-out: CDK7/Cyclin H/MAT1 IC50; enzyme 12.5 nM, ATP 70 μM, 28° C. 30 min
Protocol: (§2) CDK7/CyclinH/MAT1 kinase inhibitory activity (IC50): 5 μl of various dilutions of test compound in 1× kinase buffer (20 mM HEPES, pH 7.5, 10 mM MgCl2, 2 mM DTT and 0.01% Triton X-100) was mixed with 10 μL of CDK7/CyclinH/MAT1 (Millipore, 14-476M #, final concentration 12.5 nM in 1× Kinase buffer) in 384 plates and incubated at room temperature for 10 min. To initiate each reaction, 10 μL of peptide solution containing fluorescently-labeled-peptide CTD3 (5-FAM-[…], GL, SY346885 #, final concentration 3000 nM) and ATP (final concentration 70 μM) in 1× Kinase buffer was added to each of the wells containing test compound and CDK7/CyclinH/MAT1 mixture. […]
(§3) Following the kinase reaction, Caliper EZ reader II (Downstream voltages: −500V, Upstream voltages: −2250V, Base pressure −0.5 PSI, Screen pressure −1.2 PSI) was used to separate the phosphoiylated (product) and the unphosphorylated (substrate) fluorescently-labeled peptide CTD3 based on their different mobility. Both substrate and product were measured and the ratio of these values were used to generate % conversion by Caliper EZ reader II. […] IC50 values were then calculated by plotting dose-response curves and then using the XLfit application in Excel software.

CDK2/CyclinE1 = CDK2/CyclinE1 (Homo sapiens, UniProt P24941); assay: CDK2/CyclinE1 kinase inhibitory activity (Caliper mobility shift); conditions: read-out: CDK2/Cyclin E1 IC50; enzyme 3 nM, ATP 77 μM, 28° C. 30 min
Protocol: CDK2/CyclinE1 kinase inhibitory activity (IC50): 5 μl of various dilutions of test compounds in 1×kinase buffer (50 mM HEPES pH 7.5, 10 mM MgCl2, 2 mM DTT and […] Brij-35) were mixed with 10 μL of CDK2/CyclinE1 (Carna, 04-165 #, final concentration 3 nM in 1×Kinase buffer) in 384 plates and incubated at room temperature for 10 min. To initiate each reaction, 10 μL of peptide solution containing fluorescently-labeled-peptide 18(5-FAM-QSPKKG-CONH2) (GL, 114202 #, final concentration 3000 nM) and ATP (final concentration 77 μM) in 1×Kinase buffer was added to each of the wells containing test compound and CDK2/CyclinE1 mixture. […]
as §3, with “phosphorylated” for “phosphoiylated”, “18” for “CTD3”

CDK1/CyclinB = CDK1/CyclinB (Homo sapiens, UniProt P06493); assay: CDK1/CyclinB kinase inhibitory activity (Caliper mobility shift); conditions: read-out: CDK1/Cyclin B1 IC50; enzyme 3 nM, ATP 20 μM, 28° C. 30 min
Protocol: CDK1/CyclinB kinase inhibitory activity (IC50): 5 μl of various dilutions of test compound in 1× kinase buffer (50 mM HEPES pH 7.5, 10 mM MgCl2, 2 mM DTT and 0.01% Brij-35) was mixed with 10 μL of CDK1/CyclinB (Millipore, 14-450M #, final concentration 3 nM in 1× Kinase buffer) in 384 plates and incubated at room temperature for 10 min. To initiate each reaction, 10 μL of peptide solution containing fluorescently-labeled-peptide 18(5-FAM-QSPKKG-CONH2) (GL, 114202 #, final concentration 3000 nM) and ATP (final concentration 20 μM) in 1× Kinase buffer was added to each of the wells containing test compound and CDK1/CyclinB mixture. […]
as §3, with “phosphorylated” for “phosphoiylated”, “18” for “CTD3”

CDK9/CyclinT1 = CDK9/CyclinT1 (Homo sapiens, UniProt P50750); assay: CDK9/CyclinT1 kinase inhibitory activity (Caliper mobility shift); conditions: read-out: CDK9/Cyclin T1 IC50; enzyme 12.5 nM, ATP 10M, 28° C. 30 min
Protocol: as §2, with “CDK9/CyclinT1” for “CDK7/CyclinH/MAT1”, “14-685M” for “14-476M”, “fluorescently-labeled -peptide” for “fluorescently-labeled-peptide”, “[…])” for “70 μM)”
as §3, with “phosphorylated” for “phosphoiylated”

CC(NC1CC1)c1cnc2c(F)cc(-c3nc(N[C@@H]4CCOC[C@H]4O)ncc3Cl)cc2c1 (single isomer, unassigned) [79b]
pIC50 (CDK4/CyclinD1): 7.00 to 8.00 | pIC50 (CDK6/CyclinD3): 6.00 to 7.00

CC1(C)Cc2cnc3c(F)cc(-c4nc(Nc5ccc(-c6c[nH]cn6)cn5)ncc4Cl)cc3c2CN1
pIC50 (CDK7/CyclinH/MAT1): < 6.00 | pIC50 (CDK4/CyclinD1): > 8.00 | pIC50 (CDK2/CyclinE1): 6.00 to 7.00 | pIC50 (CDK6/CyclinD3): 7.00 to 8.00 | pIC50 (CDK1/CyclinB): 6.00 to 7.00 | pIC50 (CDK9/CyclinT1): 7.00 to 8.00

CC(NC1CC1)c1cnc2c(F)cc(-c3nc(N[C@@H]4CCOC[C@H]4O)ncc3Cl)cc2c1 (single isomer, unassigned) [79a]
pIC50 (CDK4/CyclinD1): > 8.00 | pIC50 (CDK6/CyclinD3): 6.00 to 7.00

CC(C)(O)c1ccnc2ccc(-c3nc(N[C@@H]4CCOC[C@H]4O)ncc3Cl)cc12
pIC50 (CDK4/CyclinD1): 7.00 to 8.00 | pIC50 (CDK6/CyclinD3): 6.00 to 7.00

CCc1nc2c(F)cc(-c3nc(N[C@@H]4CCOC[C@H]4O)ncc3Cl)cc2cc1C(C)(C)O
pIC50 (CDK4/CyclinD1): > 8.00 | pIC50 (CDK6/CyclinD3): 7.00 to 8.00
